## Binding of CDR-mutated scFvs to a peptide of the spike HR2 region

From the AlphaSeq antibody data of Li et al. 2023 (doi:10.1038/s41467-023-39022-2), copy in the FLAb collection.

All variants were tested on one target, the spike HR2 peptide PDVDLGDISGINAS (SARS-CoV-2).

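This is the validation round: designs drawn from the data on random variants, tested in the same kind of assay. Their group label is 14L_En_HC (En: ensemble of fine-tuned language models; HC: hill climbing; a sequence that several methods proposed may carry one label only). AlphaSeq pools MATa yeast showing the antibodies with MATalpha yeast showing the peptide. After mating in shaken culture at 30 °C for 16 h, diploids were selected and their barcode pairs sequenced. Read counts were normalised to the haploid input and turned into Kd by a linear fit to BCL2-family pairs of known affinity, for each replicate. There are six technical replicates.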

Parent scFv Ab-14: VH joined to VL by a (GGGGS)3 linker. Changes lie in the light chain CDRs alone.
VH: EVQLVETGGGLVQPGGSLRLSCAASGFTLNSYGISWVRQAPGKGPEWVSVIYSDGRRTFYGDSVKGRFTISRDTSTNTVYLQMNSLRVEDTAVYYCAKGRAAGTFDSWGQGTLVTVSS
VL: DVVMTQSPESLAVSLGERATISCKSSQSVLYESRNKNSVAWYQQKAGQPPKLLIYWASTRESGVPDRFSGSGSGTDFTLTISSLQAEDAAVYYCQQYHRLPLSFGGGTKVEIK

The parent's light chain CDRs are KSSQSVLYESRNKNSVA, WASTRES, QQYHRLPLS; each variant's own CDRs replace them letter for letter.
Affinities are written as log10 Kd with Kd in nM; a lower number is a better binder.
"nd" means that the variant was in the library but no mating with the target was seen in that replicate; the authors take this as a sign of poor binding, and no number exists.
Of ten entries with the parent sequence, four were seen in most replicates (averages 0.34 to 2.37), three in one and three in none, so single entries are noisy.
In the paper, a design with two or fewer of six values counts as a poor binder.
Nonspecific signal, from three strains lacking the peptide, appeared in 4% of pairings of all light chain designs, centred on 2.64 (5% of these signals below 1.59); values are not corrected for it. For each scFv, signals with the empty controls are counted beside the result, with their mean in brackets.
A sequence measured in both rounds can read differently, since the two assays cover different ranges.

CDR-L1	CDR-L2	CDR-L3	log10 Kd, replicates	empty controls
KIGTGTNGEKFQSNSVA	QTSTREE	QQYHRLPLS	0.16 / 0.09 / -0.02 / -0.17 / 0.01 / 0.21	3 of 18 (2.86)
KIMQTLNYESFNKNSVA	GQETRER	QSYHRLPLS	1.50 / 1.49 / 2.07 / 0.74 / 1.16 / 1.43	0 of 18
KINYMGEHFSTNHSAIA	QASTREQ	QQYHRLPIS	0.94 / 0.70 / 0.72 / 0.91 / 0.51 / 0.68	0 of 18
ILSQSVLMGMHTKNNVA	QAQMRFN	QQYHRLPFM	2.24 / 1.71 / 2.14 / 1.92 / nd / nd	1 of 18 (1.04)
MISQSFLIGMKAKNSVA	QTSTRES	QQYDRLPLA	0.80 / 1.09 / 0.47 / 0.43 / 0.53 / 0.49	1 of 18 (3.18)
MIAQMLRGVGQNKNSVA	NAQTRES	QHYHRLPLS	2.75 / 2.07 / 1.50 / 2.38 / 2.36 / nd	0 of 18
HISPSFMVESRLKNSVA	QTETREQ	QQYDRLPLS	0.56 / 0.62 / 0.57 / 0.41 / 0.43 / 0.55	1 of 18 (2.37)
MISGSVMSESRLKNSVA	QTTTREP	QQYDRLPLS	1.22 / 0.69 / 1.54 / 0.55 / 0.77 / 1.16	1 of 18 (2.51)
KISQLVNFLGKMKNSVA	QMSTREE	QQYDRLPLS	0.60 / 0.52 / 0.47 / 0.44 / 0.58 / 0.76	1 of 18 (3.90)
KLYQNVGTMSLNKQSIA	DMERRED	QQYHRLPLS	0.51 / 0.36 / 0.50 / 0.60 / 0.58 / 0.20	0 of 18
KLYMATGYESRNKDSIA	DNSTRGR	QQYHRLPLS	1.33 / 1.31 / 0.80 / 1.31 / 0.89 / 1.26	0 of 18
KLGQMTGIESHAKNSLA	DANRRED	QQYHRLPLS	0.10 / 0.07 / 0.26 / 0.53 / 0.39 / 0.45	0 of 18
HLGGMMTWESKAKNSVA	QSNTRAE	QQYHRLPLS	0.03 / 0.12 / -0.12 / -0.13 / -0.15 / 0.00	2 of 18 (3.16)
KISSLTMYESVAKNNIA	EMSTRPS	QSYHRLPLS	0.94 / 0.89 / 0.49 / 0.62 / 0.45 / 0.50	1 of 18 (1.78)
TISQSANMESHAKNSVA	DLNLRGS	QQYDRLPLS	2.30 / 2.07 / 2.22 / nd / 1.94 / 1.99	2 of 18 (4.04)
KLSMSMRYESENKNSIA	ELVTRMS	QQYHRLPLS	0.84 / 0.85 / 0.60 / 1.09 / 1.60 / 0.95	0 of 18
KIGGVTNGTSRNKNSVA	EQSTRED	QQYNRLPLS	1.16 / 2.69 / 1.67 / 1.18 / 0.81 / 1.22	1 of 18 (2.44)
KISDSAAFLSRNRNSVA	DNSTRGS	QQYHRLPLS	0.51 / 0.49 / 0.70 / 0.72 / 0.72 / 0.90	1 of 18 (3.23)
KISMLQRYEQQNKNSIA	EMSRREN	QQYHRLPLS	0.32 / 0.45 / 0.18 / 0.01 / -0.16 / 0.09	2 of 18 (2.78)
KISMSYRYESQNKNSIA	EMTRREN	QQYHRLPLS	0.08 / 0.00 / -0.07 / 0.12 / -0.04 / 0.37	0 of 18
QLLMATMQGQHNRNSVA	HAVTRND	QSYHRLPLS	1.06 / 1.57 / 1.19 / 1.26 / 0.81 / 1.41	0 of 18
NFSQMVLTGSTLRQSVA	HASTREE	QQYHRLPLI	1.04 / 1.31 / 0.88 / 1.20 / 0.94 / 1.17	1 of 18 (2.45)
KLSQVTHSEHINKNSIA	EMVTREK	QQYDRLPLS	1.05 / 0.66 / 0.46 / 0.51 / 0.50 / 0.35	1 of 18 (2.30)
KIGGVTNGISRSKNSVA	EQSTRED	QQYDRLPLI	1.25 / 0.89 / 0.86 / 0.79 / 1.21 / 1.02	0 of 18
KLSVSWLFESIMKNSVA	ERSTRED	QDYNRLPLS	1.69 / 1.55 / 1.88 / 1.91 / 1.24 / 2.10	0 of 18
HISQSVAMTSRNKNSVA	ENSTRED	QQYDRLPLS	nd / 1.80 / 1.65 / 1.78 / 2.02 / 1.74	0 of 18
KLSQLFYKESRQKNNVA	EMTTRGS	QQYDRLPLS	0.83 / 0.74 / 0.51 / 0.56 / 0.66 / 0.72	1 of 18 (1.80)
KISMLYNFASTNKNSIA	EMTTRES	QHYHRLPLS	0.95 / 1.04 / 1.36 / 1.09 / 1.45 / 1.09	1 of 18 (2.45)
TLTTVQGMESHNKNSVA	DLSTRGS	QQYHRLPLS	0.63 / 0.15 / 0.28 / 0.08 / 0.11 / 0.50	0 of 18
MIAESVGYQSRNKNSVA	DNSTRED	QCYDRLPLS	2.59 / nd / nd / 2.50 / 1.95 / nd	1 of 18 (2.59)
NLYQAMNFLGRVMNSIA	DASTIPD	QQYHRLPLS	nd / 1.66 / nd / nd / nd / nd	0 of 18
KLRQSVGYESRNKSRVA	DNSTRES	QQYDRLPLS	3.20 / 2.42 / 2.83 / 2.40 / 1.69 / 2.77	2 of 18 (2.53)
TISYSALMTGLNRNSVA	QAEERLE	QQYNRLPLS	0.87 / 0.57 / -0.02 / 0.99 / 0.12 / 2.21	0 of 18
KIGQLTTYHSQVGNSIA	QTSTREE	QQYHRLPLS	0.28 / 0.17 / 0.10 / 0.12 / 0.03 / 0.28	0 of 18